Target: recombinant human Estrogen Receptor alpha ligand binding domain (ER alpha-LBD (GST)) (Homo sapiens (Human), UniProt P03372)
Test: ERα binding assay (LanthaScreen TR-FRET competition)
Conditions: read-out: ER binding IC50 value; competitive displacement of Fluormone ES2 tracer, 4 hours room temperature

Chains of the proteins cited; added tags and fusions are not shown. Residues count along the entry.
UniProt P03372, 307-554: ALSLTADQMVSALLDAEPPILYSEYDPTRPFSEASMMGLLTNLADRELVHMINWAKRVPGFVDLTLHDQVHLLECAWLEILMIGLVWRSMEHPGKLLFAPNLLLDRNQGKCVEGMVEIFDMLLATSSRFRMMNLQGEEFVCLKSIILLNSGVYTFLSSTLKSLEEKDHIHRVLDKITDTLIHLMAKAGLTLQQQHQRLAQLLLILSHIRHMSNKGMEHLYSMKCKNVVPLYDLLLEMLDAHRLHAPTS

| SMILES | IC50 [nM] |
| --- | --- |
| COCC(C)(F)CN1[C@H](c2ccc(OCCN3CC(CF)C3)cc2OC)c2ccc3[nH]ncc3c2C[C@H]1C (single isomer, unassigned) [Example 16] | 4.1 |
| COCC(C)(F)CN1[C@H](c2ccc(OCCN3CC(CF)C3)cc2OC)c2ccc3[nH]ncc3c2C[C@H]1C (single isomer, unassigned) [Example 17] | 9.7 |
| COc1cc(OCCN2CC(CF)C2)ccc1[C@@H]1c2ccc3[nH]ncc3c2C[C@@H](C)N1CC(C)(F)CF (single isomer, unassigned) [Example 20] | 1.1 |
| COc1cc(OCCN2CC(CF)C2)ccc1[C@@H]1c2ccc3[nH]ncc3c2C[C@@H](C)N1CC(C)(F)CF (single isomer, unassigned) [Example 21] | 2 |
| C[C@@H]1Cc2c(ccc3[nH]ncc23)[C@@H](c2c(F)cc(OCCN3CC(CF)C3)cc2F)N1CC(F)CF (single isomer, unassigned) [Example 34] | 3.8 |
| C[C@@H]1Cc2c(ccc3[nH]ncc23)[C@@H](c2c(F)cc(OCCN3CC(CF)C3)cc2F)N1CC(F)CF (single isomer, unassigned) [Example 35] | 2.7 |
| C[C@@H]1Cc2c(ccc3[nH]ncc23)[C@@H](c2c(F)cc(OCCN3CC(CF)C3)cc2F)N1CC(C)(C)F [Example 1, (6S,8R)-6-(2,6-difluoro-4-(2-(3-(fluoromethyl)azetidin-1-yl)ethoxy)phenyl)-7-(2-fluoro-2-methylpropyl)-8-methyl-6,7,8,9-tetrahydro-3H-pyrazolo[4,3-f]isoquinoline] | 1.2 |
| C[C@@H]1Cc2c(ccc3[nH]ncc23)[C@@](C)(c2c(F)cc(OCCN3CC(CF)C3)cc2F)N1CC(C)(C)F [Example 2, (6S,8R)-6-(2,6-difluoro-4-(2-(3-(fluoromethyl)azetidin-1-yl)ethoxy)phenyl)-7-(2-fluoro-2-methylpropyl)-6,8-dimethyl-6,7,8,9-tetrahydro-3H-pyrazolo[4,3-f]isoquinoline] | 1.5 |
| CC(C)(F)CN1[C@H](c2c(F)cc(OCCN3CC(CF)C3)cc2F)c2ccc3[nH]ncc3c2C[C@H]1C(F)F [Example 3, (6S,8S)-6-(2,6-difluoro-4-(2-(3-(fluoromethyl)azetidin-1-yl)ethoxy)phenyl)-8-(difluoromethyl)-7-(2-fluoro-2-methylpropyl)-6,7,8,9-tetrahydro-3H-pyrazolo[4,3-f]isoquinoline] | 0.52 |
| CC(C)(F)CN1[C@H](C(F)F)Cc2c(ccc3[nH]ncc23)[C@@]1(C)c1c(F)cc(OCCN2CC(CF)C2)cc1F [Example 4, (6S,8S)-6-(2,6-difluoro-4-(2-(3-(fluoromethyl)azetidin-1-yl)ethoxy)phenyl)-8-(difluoromethyl)-7-(2-fluoro-2-methylpropyl)-6-methyl-6,7,8,9-tetrahydro-3H-pyrazolo[4,3-f]isoquinoline] | 0.5 |
| COc1cc(OCCN2CC(CF)C2)ccc1[C@@H]1c2ccc3[nH]ncc3c2C[C@@H](C)N1CC(C)(C)F [Example 5, (6S,8R)-7-(2-fluoro-2-methylpropyl)-6-(4-(2-(3-(fluoromethyl)azetidin-1-yl)ethoxy)-2-methoxyphenyl)-8-methyl-6,7,8,9-tetrahydro-3H-pyrazolo[4,3-f]isoquinoline] | 3.3 |
| COc1cc(OCCN2CC(CF)C2)ccc1[C@@H]1c2ccc3[nH]ncc3c2C[C@@H](C)N1CC1(F)CC1 [Example 6, (6S,8R)-7-((1-fluorocyclopropyl)methyl)-6-(4-(2-(3-(fluoromethyl)azetidin-1-yl)ethoxy)-2-methoxyphenyl)-8-methyl-6,7,8,9-tetrahydro-3H-pyrazolo[4,3-f]isoquinoline] | 10 |
| COc1cc(OCCN2CC(CF)C2)ccc1[C@@H]1c2ccc3[nH]ncc3c2C[C@@H](C)N1CC(F)F [Example 7, (6S,8R)-7-(2,2-difluoroethyl)-6-(4-(2-(3-(fluoromethyl)azetidin-1-yl)ethoxy)-2-methoxyphenyl)-8-methyl-6,7,8,9-tetrahydro-3H-pyrazolo[4,3-f]isoquinoline] | 2 |
| C[C@@H]1Cc2c(ccc3[nH]ncc23)[C@@H](c2ccc(OCCN3CC(CF)C3)cn2)N1CC1(F)CC1 [Example 8, (6S,8R)-7-((1-fluorocyclopropyl)methyl)-6-(5-(2-(3-(fluoromethyl)azetidin-1-yl)ethoxy)pyridin-2-yl)-8-methyl-6,7,8,9-tetrahydro-3H-pyrazolo[4,3-f]isoquinoline] | 1.3 |
| COc1cc(OCCN2CC(CF)C2)ccc1[C@@H]1c2ccc3[nH]ncc3c2C[C@@H](C)N1CC(C)C [Example 9, (6S,8R)-6-(4-(2-(3-(fluoromethyl)azetidin-1-yl)ethoxy)-2-methoxyphenyl)-7-isobutyl-8-methyl-6,7,8,9-tetrahydro-3H-pyrazolo[4,3-f]isoquinoline] | 5.8 |
| COCC(F)(F)CN1[C@H](c2ccc(OCCN3CC(CF)C3)cn2)c2ccc3[nH]ncc3c2C[C@H]1C [Example 10, (6S,8R)-7-(2,2-difluoro-3-methoxypropyl)-6-(5-(2-(3-(fluoromethyl)azetidin-1-yl)ethoxy)pyridin-2-yl)-8-methyl-6,7,8,9-tetrahydro-3H-pyrazolo[4,3-f]isoquinoline] | 7.9 |
| COc1cc(OCCN2CC(CF)C2)ccc1[C@@H]1c2ccc3[nH]ncc3c2C[C@@H](C)N1CC(C)(F)F [Example 11, (6S,8R)-7-(2,2-difluoropropyl)-6-(4-(2-(3-(fluoromethyl)azetidin-1-yl)ethoxy)-2-methoxyphenyl)-8-methyl-6,7,8,9-tetrahydro-3H-pyrazolo[4,3-f]isoquinoline] | 1.3 |
| COc1cc(OCCN2CC(CF)C2)ccc1[C@@H]1c2ccc3[nH]ncc3c2C[C@@H](C)N1CC(F)(F)F [Example 12, (6S,8R)-6-(4-(2-(3-(fluoromethyl)azetidin-1-yl)ethoxy)-2-methoxyphenyl)-8-methyl-7-(2,2,2-trifluoroethyl)-6,7,8,9-tetrahydro-3H-pyrazolo[4,3-f]isoquinoline] | 2.9 |
| COc1cc(OCCN2CC(CF)C2)ccc1[C@@H]1c2ccc3[nH]ncc3c2C[C@@H](C)N1CC1(F)COC1 [Example 13, (6S,8R)-6-(4-(2-(3-(fluoromethyl)azetidin-1-yl)ethoxy)-2-methoxyphenyl)-7-((3-fluorooxetan-3-yl)methyl)-8-methyl-6,7,8,9-tetrahydro-3H-pyrazolo[4,3-f]isoquinoline] | 3.7 |
| COc1cc(OCCN2CC(CF)C2)ccc1[C@@H]1c2ccc3[nH]ncc3c2C[C@@H](C)N1CC(F)(F)CO [Example 14, 2,2-difluoro-3-((6S,8R)-6-(4-(2-(3-(fluoromethyl)azetidin-1-yl)ethoxy)-2-methoxyphenyl)-8-methyl-3,6,8,9-tetrahydro-7H-pyrazolo[4,3-f]isoquinolin-7-yl)propan-1-ol] | 3.5 |
| COCC(F)(F)CN1[C@H](c2ccc(OCCN3CC(CF)C3)cc2OC)c2ccc3[nH]ncc3c2C[C@H]1C [Example 15, (6S,8R)-7-(2,2-difluoro-3-methoxypropyl)-6-(4-(2-(3-(fluoromethyl)azetidin-1-yl)ethoxy)-2-methoxyphenyl)-8-methyl-6,7,8,9-tetrahydro-3H-pyrazolo[4,3-f]isoquinoline] | 5.2 |
| COc1cc(OCCN2CC(CF)C2)ccc1[C@@H]1c2ccc3[nH]ncc3c2C[C@@H](C)N1CC(F)(F)CF [Example 22, (6S,8R)-6-(4-(2-(3-(fluoromethyl)azetidin-1-yl)ethoxy)-2-methoxyphenyl)-8-methyl-7-(2,2,3-trifluoropropyl)-6,7,8,9-tetrahydro-3H-pyrazolo[4,3-f]isoquinoline] | 1.9 |
| COc1cc(OCCN2CC(C)C2)ccc1[C@@H]1c2ccc3[nH]ncc3c2C[C@@H](C)N1CC(C)(C)F [Example 23, (6S,8R)-7-(2-fluoro-2-methylpropyl)-6-(2-methoxy-4-(2-(3-methylazetidin-1-yl)ethoxy)phenyl)-8-methyl-6,7,8,9-tetrahydro-3H-pyrazolo[4,3-f]isoquinoline] | 2.8 |
| COc1cc(OCCN2CC(OC)C2)ccc1[C@@H]1c2ccc3[nH]ncc3c2C[C@@H](C)N1CC(C)(C)F [Example 24, (6S,8R)-7-(2-fluoro-2-methylpropyl)-6-(2-methoxy-4-(2-(3-methoxyazetidin-1-yl)ethoxy)phenyl)-8-methyl-6,7,8,9-tetrahydro-3H-pyrazolo[4,3-f]isoquinoline] | 3.7 |
| COc1cc(OCCN2CC(CF)C2)cc(F)c1[C@@H]1c2ccc3[nH]ncc3c2C[C@@H](C)N1CC(C)(F)F [Example 25, (6S,8R)-7-(2,2-difluoropropyl)-6-(2-fluoro-4-(2-(3-(fluoromethyl)azetidin-1-yl)ethoxy)-6-methoxyphenyl)-8-methyl-6,7,8,9-tetrahydro-3H-pyrazolo[4,3-f]isoquinoline] | 1.3 |
| COc1cc(OCCN2CC(CF)C2)cc(F)c1[C@@H]1c2ccc3[nH]ncc3c2C[C@@H](C)N1CC(F)(F)CO [Example 26, 2,2-difluoro-3-((6S,8R)-6-(2-fluoro-4-(2-(3-(fluoromethyl)azetidin-1-yl)ethoxy)-6-methoxyphenyl)-8-methyl-8,9-dihydro-3H-pyrazolo[4,3-f]isoquinolin-7(6H)-yl)propan-1-ol] | 3.8 |
| COc1cc(OCCN2CC(CF)C2)cc(F)c1[C@@H]1c2ccc3[nH]ncc3c2C[C@@H](C)N1CC(F)(F)CF [Example 27, (6S,8R)-6-(2-fluoro-4-(2-(3-(fluoromethyl)azetidin-1-yl)ethoxy)-6-methoxyphenyl)-8-methyl-7-(2,2,3-trifluoropropyl)-6,7,8,9-tetrahydro-3H-pyrazolo[4,3-f]isoquinoline] | 2.6 |
| CC(C)CN1[C@H](c2ccc(OCCN3CC(CF)C3)cc2)c2ccc3[nH]ncc3c2C[C@H]1C [Example 28, (6R,8R)-6-(4-(2-(3-(fluoromethyl)azetidin-1-yl)ethoxy)phenyl)-7-isobutyl-8-methyl-6,7,8,9-tetrahydro-3H-pyrazolo[4,3-f]isoquinoline] | 1.9 |
| C[C@@H]1Cc2c(ccc3[nH]ncc23)[C@@H](c2ccc(OCCN3CC(CF)C3)cc2)N1CC1(F)CC1 [Example 29, (6R,8R)-7-((1-fluorocyclopropyl)methyl)-6-(4-(2-(3-(fluoromethyl)azetidin-1-yl)ethoxy)phenyl)-8-methyl-6,7,8,9-tetrahydro-3H-pyrazolo[4,3-f]isoquinoline] | 9.2 |

Source: patent publication US10125135B2, “Chemical compounds” (AstraZeneca AB, priority 2016, dated 2018)
